Assay: Solubility of the maleic acid salt
Assay type: physicochemical
Method: 6-(3-Hydroxy-4-(pyrrolidinomethyl)phenylmethyl)-3-isopropyl-1-(3,5-dichloropyridin-4-yl)-pyrazolo[3,4-d]pyrimidin-4-one (as free base, see Example B.7) was dissolved in isopropyl alcohol at 70° C., and a solution of maleic acid (1.05 equiv.) in isopropyl alcohol was added. The reaction mixture was stirred at 70° C. for 20 minutes, then cooled to RT overnight and filtered. The resulting solid was added to H2O, the slurry stirred for 24 hours at RT and filtered. Melting point=209° C.

6-(3-Hydroxy-4-(pyrrolidinomethyl)phenylmethyl)-3-isopropyl-1-(3,5-dichloropyridin-4-yl)-pyrazolo[3,4-d]pyrimidin-4-one (Maleic Acid Salt) [Example B.8]
solubility: 2.5 µg/mL
